This is a selection: effects in other tests are not listed, and their absence says nothing.
Assays:
[1] = tested on: LoVo; assay: Cytotoxicity against colorectal tumor cell line LoVo 1 hour after incubation.; assay type: functional, cell-based, Homo sapiens
How it was run: (§1)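 LoVo colorectal cells (2.5 × 10^3/well) were exposed to a range of prodrug or parent drug concentrations for 1 h, then washed. The cells were grown a further 3 days at 37 °C, fixed, and stained with sulforhodamine B to measure cellular protein. Treated wells were compared with untreated controls to give IC50. The ratio is prodrug IC50 over drug IC50.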

[2] = tested on: LoVo; assay: Ratio of IC50 (prodrug)/IC50 (drug); assay type: functional, Homo sapiens; how it was run: as §1

Oc1ccc(N(CCCl)CCCl)c(Cl)c1
IC50 [1]: 2120 nM | Ratio [2]: 4.4
